Earlier results on 1 compound are cited in article PMC10191356, “Target-agnostic drug prediction integrated with medical record analysis uncovers differential associations of statins with increased survival in COVID-19 patients” (PLOS Computational Biology, 2023).

For the data set the following is noted: cited from earlier work.

Consider `CC(C)c1c(C(=O)Nc2ccccc2)c(-c2ccccc2)c(-c2ccc(F)cc2)n1CC[C@@H](O)C[C@@H](O)CC(=O)O` [atorvastatin], for which the Active metabolites result is recorded as “Yes”.
